Measurements: patent US20200085979A1, “PRECISION MEDICINE THERANOSTICS AND DIAGNOSTICS A COMBINATION THEREOF” (priority 2018, published 2020)

Tested on: HER2+ breast cancer
Assay: human PET study versus [18F] Fludeoxyglucose PET scan in an HER2+ breast cancer patient
Settings: in vivo
Description: Embodiments of the present invention also utilize the therapeutic compounds of the invention in conjunction with a diagnostic. Compounds containing αvβ3/αvβ5 anti-integrin antagonist peptidomimetic, displaying a selective affinity for the HER2+ protein, vitronectin, fibronectin, tenascin, reelin, kindlin, talin or combination thereof for the diagnosis or prognosis of disorders using PET, SPECT and MRI or combinations by administering an effective amount of activity thereof to a subject, particularly for the diagnosis of diseases related to metastasis and angiogenesis such as breast cancer, lung cancer, ovarian cancer, gastric cancer, esophageal cancer, blood borne cancers, musculoskeletal tumors, melanoma, head and neck cancer, human glioma, cervical cancer, vascular restenosis, osteoporosis, rheumatoid arthritis. […] The compounds referred to may be radiotracers for nuclear medicine, such as the Gallium-68 or Fluorine-18, […], Copper-64, or Technetium-99m, covalently bound to a spacer, chelator, directly to the peptidomimetic, to a nanoparticle or to more than one amino acid unit of the peptidomimetic. Other radiotracers are those reported in the publication Radionuclide Peptide Cancer Therapy, edited by M. Chinol and G. Paganelli, Taylor and Francis CRC Press, 2006. […]

[18F] Fludeoxyglucose [reference compound]
tumors distant from the primary detected: 12 tumors
